Earlier results as cited in US20040043919A1, “Method for the treatment of neurological and neuropsychological disorders” (priority 2003, published 2004).

Amino acid sequences for entries named in this document (tags omitted).
UniProt P21555, whole entry: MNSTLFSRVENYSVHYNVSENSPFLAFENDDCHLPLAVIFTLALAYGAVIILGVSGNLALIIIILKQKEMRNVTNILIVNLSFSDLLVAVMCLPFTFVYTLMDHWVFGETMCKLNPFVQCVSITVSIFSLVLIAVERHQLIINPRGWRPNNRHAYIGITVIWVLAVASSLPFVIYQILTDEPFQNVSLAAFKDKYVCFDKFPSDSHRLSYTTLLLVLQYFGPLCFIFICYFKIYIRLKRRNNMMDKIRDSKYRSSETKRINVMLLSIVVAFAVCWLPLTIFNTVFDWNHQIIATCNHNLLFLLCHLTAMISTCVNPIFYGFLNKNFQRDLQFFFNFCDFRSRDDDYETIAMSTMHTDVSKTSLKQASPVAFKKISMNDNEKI

Target: T1, NPY Y1 receptor (Rattus norvegicus, UniProt P21555)
T1 construct: i.c.v. injection of the Y1 antagonist; host or cells: living animal (brain, i.c.v. injection)
Details: i.c.v. injection; without any locomotor deficit; cited from earlier work

Compound: NC(N)=NCCC[C@@H](NC(=O)C(c1ccccc1)c1ccccc1)C(=O)NCc1ccc(O)cc1 [BIBP3226]
- Effect in the elevated plus-maze test: anxiogenic-like effects
